From PubChem BioAssay AID587 (National Center for Advancing Translational Sciences (NCATS), 2007)
Some of the results follow. Inconclusive results are not listed. The source made the active and inactive calls. Rule as the data show it: active = max dye-equivalent concentration above about 10 nM; inconclusive = between about 1.1 nM and that limit; inactive = weaker than that.

Experiment: qHTS Assay for Spectroscopic Profiling in Texas Red Spectral Region
Conditions: Compound fluorescence, Texas Red channel, 547/618 nm
Text: NIH Molecular Libraries Screening Centers Network [MLSCN] NIH Chemical Genomics Center [NCGC] […] Occasionally, the artifactual effect may originate from the compound#s own spectral or other biophysical properties which generally tend to track its assay concentration. Pre-screening/profiling the library with respect to the compounds# spectral properties should help one exclude false positives early on. While the most informative fluorescent profiling data set is obtained by performing a full excitation and emission scan of each well by using a monochromator-based plate reader, such an approach is practical only on a very limited scale as scanning each well requires long time. An alternative approach, applied here, is to perform plate reader scans using selected excitation and emission wavelength pairs to generate a multidimensional relational database that correlates compound concentration and the respective relative fluorescence intensity at a given wavelength set. A standard curve of Texas Red (TR) present on each plate as six-point concentration series, was used to compute a normalized fluorescence response, termed dye-equivalent concentration, for each compound at each concentration.
NCGC Assay Protocol Summary: Buffer: 100 mM Tris buffer, pH 8.0 Dye standard plate: The wells in columns 1 through 4 of a Kalypsys polypropylene 1536-well compound plate were filled with standard solutions of fluorophore corresponding to the spectral region of interest. Solutions of TR were placed in the following wells: U1, V1: 3 mM, U2, V2: 300 uM, U3, V3: 30 uM, U4, V4: zero (DMSO), W1, X1: 3 uM, W2, X2: 900 nM, W3, X3: 300 nM, W4, X4: zero (DMSO). Assay Steps: Six uL of buffer were dispensed to 1536-well Greiner black plates. Compounds and dye standards (23 nL) were transferred via Kalypsys PinTool. The plates were incubated for 15 min at room temperature, and then read on ViewLux (Perkin-Elmer) High-throughput CCD imager using 547 nm and 618 nm excitation and emission filter set. Keywords: NIH Roadmap, MLSCN, MLI, MLSMR, qHTS, NCGC, Texas Red, Fluorescent Profiling.

SMILES | outcome
Cc1nn(-c2ccccc2)c2c1P(=O)(N1CCOCC1)N(C)C(c1ccccc1)=N2 (stereo not given) | inactive
O=P1(Nc2ccc(Br)cn2)COc2ccccc2OC1 | inactive
Cc1ccc(OCC(=O)OC2CN3CCC2CC3)cc1 (stereo not given) | inactive
CN(CCCl)Cc1cc(Cl)c(NC2=NCCN2)c(Cl)c1 | inactive
O=P1(Nc2ccccn2)COc2ccccc2OC1 | inactive
Clc1n[nH]nc1-c1nn[nH][15n]1 | inactive
Cc1nc2ccc3ccccc3c2s1.O=[N+]([O-])c1cc([N+](=O)[O-])c(O)c([N+](=O)[O-])c1 | inactive
CN(C(=O)Cc1ccc(Cl)c(Cl)c1)[C@@H]1CCCC[C@H]1N1CCCC1 | inactive
Cc1cccc(OCC(=O)OC2CN3CCC2CC3)c1 (stereo not given) | inactive
O=C(CC(=O)c1ccccc1)O[C@H]1CN2CCC1CC2 | inactive
NS(=O)(=O)Cc1ccc([As](=O)(O)O)cc1 | inactive
O=P(Nc1nccs1)(c1ccccc1)c1nc2ccccc2s1 (stereo not given) | inactive
CCOP1(=S)c2c(C)nn(CCC#N)c2N=C(c2ccc(F)cc2)N1C (stereo not given) | inactive
COc1ccccc1OP(C)(=O)Nc1ccc(C)cc1 (stereo not given) | inactive
[N-]=[N+]=NCC(N)=O | inactive
O=[As]c1ccc(S(=O)(=O)NCCO)cc1 (stereo not given) | inactive
O=C(OC1CN2CCC1CC2)C12CC3CC(CC(C3)C1)C2 (stereo not given) | inactive
NC(=O)Nc1cc([As](=O)(O)O)cc(I)c1O | inactive
CP(=O)(NC(=O)Nc1ccccc1)Oc1ccccc1 (stereo not given) | inactive
O=C(COc1ccccc1)OC1CN2CCC1CC2 (stereo not given) | inactive
N1=C(c2nnc(-c3nn[nH]n3)nn2)NNN1 | inactive
CP(=S)(Nn1cnnc1)Oc1ccccc1 (stereo not given) | inactive
CN(C(=O)Cc1ccccc1)[C@@H]1CC[C@@]2(CCCO2)C[C@H]1N1CCCC1 | inactive

SMILES | outcome
C/C1=C2N=C(/C=C3N=C(/C(C)=C4\[N-][C@@](C)([C@H]5N=C1[C@@](C)(CCC(=O)NC[C@H](C)OP(=O)([O-])O[C@@H]1[C@H](O)[C@H](n6cnc7cc(C)c(C)cc76)O[C@@H]1CO)[C@@H]5CC(N)=O)[C@](C)(CC(N)=O)[C@H]4CCC(N)=O)[C@@](C)(CC(N)=O)[C@@H]\3CCC(N)=O)C(C)(C)[C@@H]/2CCC(N)=O.[C-]#N.[Co+3] | inactive
CCN(CC)CC(O)COC(=O)C(O)(c1ccccc1)C1CCCCC1 (stereo not given) | inactive
N#[O+].[C-]#N.[C-]#N.[C-]#N.[C-]#N.[C-]#N.[Fe+2].[Na+].[Na+] | inactive
COc1ccccc1OP(C)(=O)Nc1c(C)n(C)n(-c2ccccc2)c1=O (stereo not given) | inactive
CCc1nc2c(n1)c1c(non1O)c1c2no[n+]1[O-] | inactive
O=[N+]([O-])c1ccc(C[As](=O)(O)O)cc1 | inactive
NCC[C@@H](N)CSP(=O)(O)O | inactive
Cc1nc2ccc3ccccc3c2o1.O=[N+]([O-])c1cc([N+](=O)[O-])c(O)c([N+](=O)[O-])c1 | inactive
[N-]=[N+]=NCC(O)CN=[N+]=[N-] (stereo not given) | inactive
C(Cc1nn[nH]n1)c1nn[nH]n1 | inactive
COC(=O)c1cc2c(s1)N=C(c1ccccc1)N(C)P2(=O)N1CCOCC1 (stereo not given) | inactive
O=P1(Nc2nc3ccc(Cl)cc3s2)COc2ccccc2O1 (stereo not given) | inactive
CP(=O)(Nc1ccccc1F)Oc1ccccc1 (stereo not given) | inactive
O=P(Nc1nccs1)(c1ccccc1)c1ccccc1 | inactive
CCOP(C)(=S)SCC(=O)NC(C)(CC)C(=O)O (stereo not given) | inactive
c1nnnn1CCn1cnnn1 | inactive
CN1CCC[C@H](OC(=O)C(c2ccccc2)c2ccccc2)C1 | inactive
C[C@@H](O)COc1ccc([As](=O)(O)O)cc1N | inactive
Cc1ccccc1NP(C)(=O)Nc1ccccc1C | inactive
NNC(NN)NN.n1nc(-c2nn[nH]n2)n[nH]1 | inactive
CN(C)CCOC(=O)C(O)(c1ccccc1)C1CCCCC1 (stereo not given) | inactive
[N-]=[N+]=Nc1ccc([As](=O)(O)O)cc1 | inactive
